Test system: U-937
Test: cells
Assay type: functional, cell-based
Settings: Homo sapiens, U-937, 72 h

| IC50 | Structure (SMILES) |
| --- | --- |
| 6.63 µM | CSc1ccc(/C=C/c2nc(NCCN(C)C)c3ccccc3n2)cc1 |
| 3.56 µM | CC(C)c1ccc(/C=C/c2nc(NCCN(C)C)c3cc(Cl)ccc3n2)cc1 |

— ChEMBL document CHEMBL4311995, “Discovery and development of extreme selective inhibitors of the ITD and D835Y mutant FLT3 kinases” (Eur J Med Chem, 2019)
